Test system: AKT [pT308]

Q: How did the IC50 turn out when C(#Cc1n[nH]c2ccccc12)c1cccnc1 [Compound 9, 3-(pyridin-3-ylethynyl)-1H-indazole] was run?
A: 23.5 µM
